Experiment: CNS penetration across the blood brain barrier
Set-up: species or system mice
Conditions: mouse, in vivo
Method: Mice are dosed with compounds. Brain to blood ratios are determined by HPLC and LC/MS/MS analysis following oral administration of the test compounds in mice.

With Ibogaine the “Crossing of the BBB and brain concentration” value was “cross the BBB and reach micromolar concentrations in brain”.

Reference: patent publication US9783535B2 (priority 2012, dated 2017)
